Source: patent publication EP0888303B1, “SYNTHETIC DERIVATIVES OF RAPAMYCIN AS MULTIMERIZING AGENTS FOR CHIMERIC PROTEINS WITH IMMUNOPHILIN-DERIVED DOMAINS” (ARIAD Pharmaceuticals, Inc, priority 1996, dated 1997)

Biological target: mutant (F36V) FKBP
Assay: Competitive Binding FP Assay
Set-up: species or system human
Settings: Synthetic Multimerizers table; monomer value in brackets; mean of duplicates; normalized to FK506 = […] (substituted phenyl/lower aliphatic series: to AP1903 values); read-out: FKBPF36V binding affinity IC50

Compound: CCC(CC)C(=O)N1CCCC[C@H]1C(=O)O[C@H](CCc1ccc(OC)c(OC)c1)c1cccc(OCC(=O)NCCNC(=O)COc2cccc([C@@H](CCc3ccc(OC)c(OC)c3)OC(=O)[C@@H]3CCCCN3C(=O)C(CC)CC)c2)c1 [AP1891]
- IC50: 174 nM
